Results published in US9243009B2, “Phosphate ester compound of hydroxy acid substituted phenol ester, preparation method and medical use thereof” (West China Hospital, Sichuan University, priority 2010, dated 2016).

Conditions: 10 mg/ml solution mixed with mouse, rat or rabbit plasma, 37° C., 0 min to 4 h

Row | Substance | decomposition in the plasma into the active compound propofol
1 | propofol w-hydroxyvalerate phosphate disodium salt | rapidly decomposed
2 | propofol w-hydroxybutyrate phosphate disodium salt | rapidly decomposed
